Assay results taken from patent US11850287B2, “Heterocyclic acyl hydrazone linkers, methods and uses thereof” (Ontario Institute for Cancer Research (OICR), priority 2017, dated 2023).

Tested on: SKOV3 ovarian cells
Assay: Cytotoxicity against SKOV3 ovarian cancer cells (ATP content, CellTiter-Glo)
Type: cell-based
Conditions: DAR ratio 3.39 (Synagis-SMCC-DM1), 3.50 (Trastuzumab-SMCC-DM1), 6.59 (IIIa), 6.99 (IIIc)
Experimental: SKOV3 ovarian cells are incubated with the effectors for a period corresponding to 2 to 3 times their estimated doubling time and the amount of viable cells is determine by measuring ATP content in the wells. ATP has been widely accepted as a valid marker of viable cells. When cells lose membrane integrity, they lose the ability to synthesize ATP and endogenous ATPases rapidly deplete any remaining ATP from the cytoplasm. All ADCs are diluted in DPBS to 6× the highest concentration tested, followed by 10 3-fold serial dilutions in DPBS for a total of 11 concentration points. Each point is added to triplicate wells. DPBS is added in wells to measure the maximum growth. Cells are diluted at their appropriate seeding density (ranging from 150 to 1000 cells per well) in complete media supplemented with glutamine 2 mM, serum and antibiotic cocktail. […] Total ATP is measured using CellTiter-Glo reagent from Promega as recommended by the supplier. […] Signal output is measured on a luminescence plate reader (envision, Perkin Elmer) set at an integration time of 0.1 sec. […]
Each concentration point (S) is normalized to the negative control wells (NC) and expressed as % survival (NC-S/NC×100). Potency (IC50) and efficacy are calculated from a non-linear curve fit of the points versus log of the concentrations without constrain on the slope. Refined data are analysed using Prism software. […]

## Trastuzumab-SMCC-DM1
  IC50: 0.038 nM
